Some test systems named below: NovoTag657; NovoTag494^L; NovoTag494^S; NovoTag494; NovoTag596.
Common to all, as to experiment: fluorescence polarization titration
Conditions in all cases: 0.8 nM dye, 20 mM Tris, 100 mM NaCl, pH 8, 25 °C

For orientation: Kd means a measure of binding affinity in units of concentration. Lower therefore signals higher affinity.

The compound `CCN1c2cc3c(cc2C(C)CC1(C)C)C(c1c(F)c(F)c(F)c(F)c1C(=O)[O-])=c1cc2c4c(c1C3(C)C)CCC[N+]=4CCC2` (centres unmarked) returned a Kd in the test with NovoTag657 of 2 nM. For the compound `N=c1cc2oc3cc(N)c(F)cc3c(-c3ccccc3C(=O)O)c-2cc1F`, the Kd with NovoTag494^L turned out to be 151 nM; in the test on NovoTag494^S, 49.8 nM; in the test on NovoTag494, 19.1 nM. For the compound `CC1=CC(C)(C)Nc2cc3c(cc21)C(c1c(F)c(F)c(F)c(F)c1C(=O)O)=c1cc2c(cc1O3)=NC(C)(C)C=C2C`, in the test with NovoTag596, the Kd worked out at 1.5 nM.
